Key:
MAO-B = biological target: T1, MAO-B (Homo sapiens, UniProt P27338); assay: MAO-B activity and inhibition assay (peroxidase-coupled, tyramine); format: biochemical; conditions: ratio of k(inact)/Ki(inact)
T1 construct: purchased Sigma M 7441
Description: (§1) MAO-A was purchased from Sigma (product number: M 7316). MAO-B was purchased from Sigma (product number: M 7441). MAO-A/B activity was measured spectrophotometrically using a peroxidase-coupled assay as previously described. Forneris, F., et al. (2005). 100 μL reactions were initiated by the addition of 2 μL of MAO-A/B (to obtain 100-200 nM final concentration for MAO-A and 0.837 M final concentration for MAO-B) to reaction mixtures consisting of 50 mM HEPES buffer (pH 7.5), 0.1 mM 4-aminoantipyrine, 1 mM 3,5-dichloro-2-hydroxybenzenesulfonic acid, 0.04 mg/mL horseradish peroxidase (Worthington Biochemical Corporation), and appropriate concentration of buffered substrate (tyramine). Absorbance changes were measured at 515 nm using a Beckman Instruments DU series 600 spectrophotometer equipped with a thermostatted cell holder (T=25° C.), and product formation was calculated using the extinction coefficient of 26,000 M^−1.
(§2) […]. Reactions were run at similar conditions as previously stated with 125 µM tyramine substrate for MAO-A and with 125-1,000 M tyramine substrate for MAO-B. Progress curves were then fit accordingly to eqs 1-3 as previously stated. Each experiment was repeated at least two independent times and repeat measured values were typically within 20% of each other.

Chains of the proteins cited; added tags and fusions are not shown.
UniProt P27338, whole entry: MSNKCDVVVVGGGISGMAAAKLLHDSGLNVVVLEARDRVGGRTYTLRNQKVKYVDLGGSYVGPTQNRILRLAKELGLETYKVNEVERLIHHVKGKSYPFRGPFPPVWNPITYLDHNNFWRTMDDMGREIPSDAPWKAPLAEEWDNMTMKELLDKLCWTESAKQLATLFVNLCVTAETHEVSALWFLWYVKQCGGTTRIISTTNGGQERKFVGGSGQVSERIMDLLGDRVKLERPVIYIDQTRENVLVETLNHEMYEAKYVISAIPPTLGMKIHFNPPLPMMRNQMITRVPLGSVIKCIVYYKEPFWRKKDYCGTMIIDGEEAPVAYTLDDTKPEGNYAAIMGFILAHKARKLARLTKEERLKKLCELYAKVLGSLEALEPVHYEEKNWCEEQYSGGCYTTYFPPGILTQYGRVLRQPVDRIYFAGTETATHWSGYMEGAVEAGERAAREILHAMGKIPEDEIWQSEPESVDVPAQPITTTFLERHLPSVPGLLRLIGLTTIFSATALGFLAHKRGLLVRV
UniProt P21397, whole entry: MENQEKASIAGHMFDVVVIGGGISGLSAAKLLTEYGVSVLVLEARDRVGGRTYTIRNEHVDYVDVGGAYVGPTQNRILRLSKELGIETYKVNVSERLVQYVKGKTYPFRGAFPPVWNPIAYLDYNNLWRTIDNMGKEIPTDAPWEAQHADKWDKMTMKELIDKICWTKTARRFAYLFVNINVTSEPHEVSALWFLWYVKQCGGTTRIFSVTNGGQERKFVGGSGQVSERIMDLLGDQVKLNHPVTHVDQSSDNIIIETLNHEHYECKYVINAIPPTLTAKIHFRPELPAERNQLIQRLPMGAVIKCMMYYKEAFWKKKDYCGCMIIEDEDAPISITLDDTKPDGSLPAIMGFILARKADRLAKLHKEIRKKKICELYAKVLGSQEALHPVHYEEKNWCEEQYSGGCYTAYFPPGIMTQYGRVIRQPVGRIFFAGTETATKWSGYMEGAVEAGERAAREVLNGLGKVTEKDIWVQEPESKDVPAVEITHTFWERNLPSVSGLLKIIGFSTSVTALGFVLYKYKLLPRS

MAO-A = biological target: T2, MAO-A (Homo sapiens, UniProt P21397); assay: MAO-A activity and inhibition assay (peroxidase-coupled, tyramine); format: biochemical; conditions: ratio of k(inact)/Ki(inact)
T2 construct: purchased Sigma M 7316
Description: as §1, §2

NNCCc1ccccc1 [phenelzine] was tested, and the “Selectivity for LSD1 vs. Enzyme Tested” value (MAO-B) was 1.24 and the “Selectivity for LSD1 vs. Enzyme Tested” value (MAO-A) was 0.217.

From patent US20170029366A1, “INHIBITORS OF HISTONE LYSINE SPECIFIC DEMETHYLASE (LSD1) AND HISTONE DEACETYLASES (HDACS)” (THE JOHNS HOPKINS UNIVERSITY, priority 2014, published 2017)
